Results on one substance are retold here after PMC10965847, “Expanding a peptide-covalent probe hybrid for PET imaging of S. aureus driven focal infections” (EJNMMI Radiopharmacy and Chemistry, 2024).

The data set deals with human erythrocytes. Kind of data set: Haemolysis assay. The note with it: human erythrocytes 4% (v/v) in PBS; 8, 32 and 128 µM; 30 min, 37 °C; absorbance 540 nm; duplicates; result in words. Here is the method: The haemolysis assay is widely used to assess the therapeutic potential of a given AMP. AMPs that cause ruptured RBCs at their MICs naturally have low therapeutic potential.
Fresh human blood samples were obtained from healthy donors with the approval of the institutional medical ethics committee. Erythrocytes were isolated from heparinized human blood by centrifugation at 2000g for 5 min after washing three times with PBS at 4 °C. After removing the supernatant, the cell pellet was resuspended in 2 mL of PBS, and cells were diluted at 4% (v/v) for the haemolysis experiment. […] Samples were centrifuged at 2000g for 5 min, and the absorbance of supernatants was measured at 540 nm using a polarstar omega plate reader from BMG Labtech. Erythrocytes lysed with 0.1% triton X-100 and 50 µg/mL melittin were used as positive controls. Percentage haemolysis was calculated using the formula: Haemolysis (%) = (ASAMPLE − ANG)/(APC − ANG) × 100[ASAMPLE = Absorbance recorded for samples at 540 nm, ANG = Absorbance recorded for untreated (negative control) erythrocytes at 540 nm, APC = Absorbance recorded for Melittin treated (positive control) erythrocytes at 540 nm]. One-way ANOVA was used to establish the presence of significant groups, and Tukey’s test was subsequently utilized to conduct the comparison of means.

Turning to “Acetyl-cysteine-2-acetyl boronic acid [AcCys-2-APBA]”, the haemolysis result is “neither hemolytic nor cytotoxic”.
